Yeast mating assay B: variants of the scFv Ab-14

Antigen: PDVDLGDISGINAS, a 14-residue peptide of the SARS-CoV-2 spike HR2 region.

Parent: Ab-14, a human scFv built as VH, the linker GGGGSGGGGSGGGGS, VL. Only the CDRs of the light chain vary.
VH: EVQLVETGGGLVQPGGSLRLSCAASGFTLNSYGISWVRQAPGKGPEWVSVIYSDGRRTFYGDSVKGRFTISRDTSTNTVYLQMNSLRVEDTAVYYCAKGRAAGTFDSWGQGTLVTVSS
VL: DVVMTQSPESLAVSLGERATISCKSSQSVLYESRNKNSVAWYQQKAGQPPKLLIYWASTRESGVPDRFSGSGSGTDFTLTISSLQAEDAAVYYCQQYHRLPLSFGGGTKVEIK

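The variants were designed computationally from a first round of random CDR variants and then made and measured. Several design methods are mixed in this list. In AlphaSeq, yeast of one mating type display the scFv and yeast of the other type display the target. Binding brings cells together so that they mate, and sequencing counts the barcode pairs among the diploids. Each replicate has its own calibration line, from reference interactions of the BCL2 family. Mating was done six times.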

The parent's light chain CDRs are KSSQSVLYESRNKNSVA, WASTRES, QQYHRLPLS; each variant's own CDRs replace them letter for letter.
Variants here have more than six changes.
Values are log10 of the apparent Kd in nM; lower means stronger binding.
The mean shown is taken over the replicates in which the pair was detected.
"nd" marks a missing value. The strain was present, yet no cells mated with the target were sequenced in any replicate, which points to weak or no binding.

| CDR-L1 | CDR-L2 | CDR-L3 | mean log10 Kd (nM) | seen in |
|---|---|---|---|---|
| IFEQGQWNGQQNQNAMA | NGHTRMQ | QQYFKLPLV | 0.23 | 6/6 |
| KIAQLVNFLGKNKNSVA | QMSTREE | QQYDRLPLS | 1.00 | 6/6 |
| KLYQNVGTMSHNKQSIA | DMERRED | QQYHRLPLS | 0.33 | 6/6 |
| HISQSIDLESVHKNSIA | DLMTRES | QQYHRLPLS | 0.19 | 6/6 |
| KISQMVKVGATHSNSIA | EEVTRAN | QQYHRLPLA | 0.83 | 6/6 |
| KHSPSEEYESRDKNSVA | MASTRMS | QQYHRLPLS | 0.81 | 6/6 |
| IVSQLMLWGLHAKNSIA | EASARLN | QQYDRLPLF | nd | 0/6 |
| KLLQNVMTEGRNRNNVA | HMDMRED | QQYWRLPLS | -0.35 | 6/6 |
| KLSLSMSFSLEGTRAIA | AGSTRAH | QQYHRLPLT | 0.70 | 6/6 |
| IIEQGEYEQEQHKNAIA | DGETRMR | QQYYKLPLV | 0.13 | 6/6 |
| KLGDMVHTLSRNKNNIA | DMRTRES | QQYYRLPLS | -0.34 | 6/6 |
| KFSGVKEMVNKDQESIA | DAHTVQE | QQYSRLPLA | 0.33 | 6/6 |
| MISQSFLIGMKAKNSVA | QTSTRVS | QQYDRLPLM | 0.77 | 6/6 |
| KYSQSDEYESRNFNSVA | NASTRLM | QQYHRLPLS | 0.53 | 6/6 |
| KLGQESYNSTYAMDAVA | DQNTADE | QHYSRLPLT | nd | 0/6 |
| KVTMYELPMEFNRSAVA | QAEVRAP | QQYWRLPLE | 2.39 | 5/6 |
| KLGMTLNTLMHKQNNVA | DLVTREN | QQYFRLPLS | 0.37 | 6/6 |
| MFSQSVMYGSFYRNSVA | QTSTREE | QQYDRLPLS | 0.55 | 6/6 |
| AISILDESVTGHYSNVA | EQHVTRM | QQYFRLPLI | 1.43 | 3/6 |
| KLPNSQEYESRWKNSVA | NASTREL | QQYHRLPLS | 1.07 | 6/6 |
| QIYQAMHTLMQQKNNVA | DVTERNN | QQYFRLPLS | 0.18 | 6/6 |
| TLMQVGGYEMNAHNSIA | DLRTREN | QQYHRLPLS | 1.17 | 6/6 |
| KLRQSTMIESFNKNNVA | EMSTRES | QSYDRLPLS | 1.08 | 6/6 |
| KIRVHHLMFSQNESNIA | GMSVRSE | QQYYHLPLT | 0.31 | 6/6 |
| KLSGLMRVESKNKSNIA | EVNERSE | QQYDRLPLS | 2.20 | 6/6 |
| KQQQSGLGEERNFNSVA | HASTRIS | QQYHRLPLS | 0.71 | 6/6 |
| MISDLTMYGSRNVNSVA | DLSTRGS | QQYERLPLS | 0.43 | 6/6 |
| KFSQLVLYEERQKNSVA | DASQRLS | QQYHRLPLS | -0.09 | 6/6 |
| QLRDEQWAEGMNIQSIA | EGEVSKD | QQYNRLPLS | 1.87 | 6/6 |
| HVHMLMAIWQEISNNIA | DAQNRNA | QQYFRLPLA | nd | 0/6 |
| SVFMELAEEKNSYRNIA | DASMRLA | QQYVRLPLG | 0.32 | 6/6 |
| HINTASVGVDDHYNAVA | EQRITGI | QQYFRLPLS | 0.93 | 6/6 |
| KLSQVTHSESRNKNSIA | EMVTREP | QQYDRLPLS | 0.11 | 6/6 |
| KIGMTLDQLMHKKNNVA | DLVVREN | QQYHRLPLS | 0.46 | 6/6 |
| KLDMNELGQSQNSSCVA | GSAQKCS | QQYSRLPLS | 1.69 | 6/6 |
| KIGQMVLTGSYVKNSVA | QSSTREN | QQYHRLPLS | 0.40 | 6/6 |
| KVSEFMRGLMQKTDSIA | DNTTRNN | QQYDRLPLS | 0.14 | 6/6 |
| KLMGNIEYGATRQYNIA | EERMVGA | QQYFHLPLI | nd | 0/6 |
| KISYMGEYFSTNHSAIA | QASTRLQ | QQYHRLPIS | 0.95 | 6/6 |
| SLGGVTSYEMQNKNSVA | QMTTRES | QQYHRLPLS | -0.07 | 6/6 |
| KFQQSQLYESRMKNSVA | NASKRCS | QQYHRLPLK | 1.60 | 6/6 |
| KLQQSELGESRNMNSVA | HASTRES | QDYHRLPLS | 0.62 | 6/6 |
| KLSQSAPYEERCFNSVA | HASQRES | QQYHRLPLS | 1.28 | 6/6 |
| MISQLMNLGQFAINSVA | QAEEREN | QQYDRLPLI | 2.56 | 2/6 |
| KLNEDVGNHTHDQKNVA | GESRVDR | QQYAHLPLS | 1.38 | 6/6 |
| KAMQMVMQESRNKNSVA | NASTRMQ | QQYHRLPLS | -0.06 | 6/6 |

Top 7 of the variants detected in all replicates, tightest first:

| CDR-L1 | CDR-L2 | CDR-L3 | mean log10 Kd (nM) | seen in |
|---|---|---|---|---|
| KLLQNVMTEGRNRNNVA | HMDMRED | QQYWRLPLS | -0.35 | 6/6 |
| KLGDMVHTLSRNKNNIA | DMRTRES | QQYYRLPLS | -0.34 | 6/6 |
| KFSQLVLYEERQKNSVA | DASQRLS | QQYHRLPLS | -0.09 | 6/6 |
| SLGGVTSYEMQNKNSVA | QMTTRES | QQYHRLPLS | -0.07 | 6/6 |
| KAMQMVMQESRNKNSVA | NASTRMQ | QQYHRLPLS | -0.06 | 6/6 |
| KLSQVTHSESRNKNSIA | EMVTREP | QQYDRLPLS | 0.11 | 6/6 |
| IIEQGEYEQEQHKNAIA | DGETRMR | QQYYKLPLV | 0.13 | 6/6 |

The authors averaged sequences with at least three values out of six and counted those with two or fewer as poor binders.
A sequence measured in both rounds can read differently, since the two assays cover different ranges.
Of ten entries with the parent sequence, four were seen in most replicates (averages 0.34 to 2.37), three in one and three in none, so single entries are noisy.
Nonspecific signal, from three strains lacking the peptide, appeared in 4% of pairings of all light chain designs, centred on 2.64 (5% of these signals below 1.59); values are not corrected for it.

Source: Li et al. 2023 (doi:10.1038/s41467-023-39022-2), MIT Lincoln Laboratory and A-Alpha Bio; data file from the FLAb repository.